Measurements: ChEMBL document CHEMBL1133607, “Nonpeptide analogues of dynorphin A(1-8): design, synthesis, and pharmacological evaluation of kappa-selective agonists” (J Med Chem, 2000)

By UniProt entry, the sequences of proteins in these tests, tags left out.
UniProt Q8WNX7, entry or part of it: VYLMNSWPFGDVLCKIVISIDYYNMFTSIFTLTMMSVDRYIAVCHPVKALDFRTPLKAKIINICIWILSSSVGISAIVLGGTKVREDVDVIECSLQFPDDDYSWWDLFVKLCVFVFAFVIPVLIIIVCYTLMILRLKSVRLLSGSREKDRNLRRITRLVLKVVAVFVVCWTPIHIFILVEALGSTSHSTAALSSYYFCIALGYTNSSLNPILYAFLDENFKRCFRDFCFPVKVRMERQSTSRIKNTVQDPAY

Biological target: Kappa opioid receptor (Sus scrofa) (UniProt Q8WNX7)
Experiment: Antinociceptive activity by measuring effective dose after 10 mg/kg of nor-BNI administered subcutaneously 10 min before agonist administered in mouse; Full antagonism of the pharmacological effect produced by the ED50 dose of the agonist
Details: filed as antagonist

**Q.** With `CN(C(=O)Cc1ccc(Cl)c(Cl)c1)C1CCCCC1N1CCCC1.Oc1ccc2c3c1OC1c4[nH]c5c(c4C[C@@]4(O)C(C2)N(CC2CC2)CCC314)C[C@@]1(O)[C@H]2Cc3ccc(O)c4c3C1(CCN2CC1CC1)C5O4` (stereo partly specified) as the compound, how does the ED50 read?
**A.** Its ED50 is “Antagonist”.
